Patent publication US20240317709A1, “Lysophosphatidic Acid Receptor Antagonists for Breast Cancer Treatment” (Lakehead University, priority 2023, published 2024)

Amino acid sequences for entries named in this document (tags omitted). A change or cut given only in a name is not applied to a line headed by its entry.
UniProt Q92633: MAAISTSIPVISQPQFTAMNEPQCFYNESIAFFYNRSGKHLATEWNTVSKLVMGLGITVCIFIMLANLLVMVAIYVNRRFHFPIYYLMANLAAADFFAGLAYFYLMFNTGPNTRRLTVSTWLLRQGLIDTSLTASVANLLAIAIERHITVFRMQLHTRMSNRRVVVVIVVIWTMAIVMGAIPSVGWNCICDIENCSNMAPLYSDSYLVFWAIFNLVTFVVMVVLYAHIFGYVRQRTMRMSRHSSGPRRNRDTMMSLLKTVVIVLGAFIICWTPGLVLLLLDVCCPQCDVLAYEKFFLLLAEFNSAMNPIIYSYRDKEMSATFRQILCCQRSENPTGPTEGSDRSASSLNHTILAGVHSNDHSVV

Molecular target: LPA1 (Homo sapiens, UniProt Q92633)
Experiment: in vitro cAMP assay using a CHO cell line overexpressing LPA1 receptor
Format: cell-based
Design: GFP; host or cells: CHO-K1, transiently transfected
Conditions: 1 μM LPA, 100 nM forskolin, test concentration not given

## Cc1nnn(-c2ccc(-c3ccc(C4(C(=O)O)CC4)cc3)cc2)c1NC(=O)OC(C)c1ccccc1F (stereo not shown) [Compound 1g, 1-(4′-(5-(((1-(2-fluorophenyl)ethoxy)carbonyl)amino)-4-methyl-1H-1,2,3-triazol-1-yl)-[1,1′-biphenyl]-4-yl)cyclopropane-1-carboxylic acid]
  % inhibition: 96.4%
